The chains behind the UniProt entries cited, without tags or fusion partners. Residues count along the entry.
UniProt P25774, 115-331 limits assumed: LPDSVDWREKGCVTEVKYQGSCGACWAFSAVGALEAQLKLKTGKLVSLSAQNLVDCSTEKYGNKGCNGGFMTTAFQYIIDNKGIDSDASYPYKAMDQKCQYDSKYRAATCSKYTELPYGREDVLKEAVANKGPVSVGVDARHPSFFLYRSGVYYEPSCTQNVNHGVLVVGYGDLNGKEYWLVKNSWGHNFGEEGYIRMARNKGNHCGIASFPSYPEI

In US20080200454A1, “CARBON-LINKED TETRAHYDRO-PYRAZOLO-PYRIDINE MODULATORS OF CATHEPSIN S” (priority 2007, published 2008):

Biological target: Recombinant human cathepsin S (CatS) (Homo sapiens, UniProt P25774)
Assay: Recombinant human cathepsin S (CatS) inhibition assay, fluorogenic substrate Z-Valine-Valine-Arginine-AMC;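 note: Baculovirus-expressed CatS in pH 5.0 sodium acetate buffer with DTT and NaCl, fluorescence read each minute over 20 min, inhibition derived from rate slope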
Conditions: read-out: CatS IC50; Table 3; average of results obtained

Which IC50 does the source give for CS(=O)(=O)N1CCc2c(c(-c3ccc(Cl)c(C#Cc4ccc(CN[C@@H]5c6ccccc6C[C@@H]5O)cc4)c3)nn2CCCN2CCN(c3ccccc3)CC2)C1 here?
Its IC50 is 40 nM.

How did the IC50 turn out when CS(=O)(=O)N1CCc2c(c(-c3ccc(Cl)c(C#Cc4ccc(CN[C@@H]5CCCc6ccccc65)cc4)c3)nn2CCCN2CCN(c3ccccc3)CC2)C1 was run?
Its IC50 is 20 nM.
